Test results reported in patent EP1157024B1, “ACETYLENIC ORTHO-SULFONAMIDO AND PHOSPHINIC ACID AMIDO BICYCLIC HETEROARYL HYDROXAMIC ACIDS AS TACE INHIBITORS” (American Cyanamid Company, priority 1999, dated 2000).

Target: MMP-13 (Homo sapiens, UniProt P45452)
Assay: MMP-13 inhibition (thiopeptide or fluorescent peptide substrate)
Type: biochemical

CC#CCOc1ccc(S(=O)(=O)N(C)c2c(C(=O)NO)cnc3c2c(C)nn3C)cc1 [Example 7, 4-[(4-But-2-ynyloxy-benzenesulfonyl)-methyl-amino]-1,3-dimethyl-1H-pyrazolo[3,4-b]pyridine-5-carboxylic acid hydroxyamide]
pIC50: 7.10

pIC50: −log10 of the molar value.
